pIC50: −log10 of the molar value.
Legend:
[1] = molecular target: human recombinant Btk (Homo sapiens (Human), UniProt Q06187); assay: Human Recombinant Btk Enzyme Assay; assay type: biochemical; details: human recombinant Btk 1 nM, ATP 20 μM
[2] = molecular target: Jak2 tyrosine kinase (Homo sapiens (Human), UniProt O60674); assay: Jak2 Tyrosine Kinase Assay; assay type: biochemical; details: selectivity for Btk over Jak2; larger value = more selective for Btk
Method: Jak2 Tyrosine Kinase Assay
Jak2 signaling occurs thru EPO and TPO, which control erythrocyte and platelet proliferation, respectively. Thus, inhibition of Jak2 tyrosine kinase can potentially lead to side-effects in the clinic. Btk inhibitors with improved selectivity over Jak2 tyrosine kinase are desired in order to minimize off target side-effects related to the inhibition of Jak2 tyrosine kinase.
The assays were performed in V-bottom 384-well plates. […] The reaction was initiated by the combination of Jak2 tyrosine kinase with substrates and test compounds. The reaction mixture was incubated at room temperature for 60 minutes and terminated by adding 45 μL of 35 mM EDTA to each sample. The reaction mixture was analyzed on the Caliper LABCHIP® 3000 by electrophoretic separation of the fluorescent substrate and phosphorylated product. […] The final concentration of reagents in the assays is ATP, 30 μM; Jak2 fluorescent peptide, 1.5 μM; Jak2, 1 nM; and DMSO, 1.6%. […] Compounds were dissolved at 10 mM in DMSO and evaluated at eleven concentrations, each in duplicate. IC50 values were derived by non-linear regression analysis.

Chains of the proteins cited; added tags and fusions are not shown. Lines headed by an entry give the natural chain unless they say otherwise; changes in a name come on top.
UniProt Q06187: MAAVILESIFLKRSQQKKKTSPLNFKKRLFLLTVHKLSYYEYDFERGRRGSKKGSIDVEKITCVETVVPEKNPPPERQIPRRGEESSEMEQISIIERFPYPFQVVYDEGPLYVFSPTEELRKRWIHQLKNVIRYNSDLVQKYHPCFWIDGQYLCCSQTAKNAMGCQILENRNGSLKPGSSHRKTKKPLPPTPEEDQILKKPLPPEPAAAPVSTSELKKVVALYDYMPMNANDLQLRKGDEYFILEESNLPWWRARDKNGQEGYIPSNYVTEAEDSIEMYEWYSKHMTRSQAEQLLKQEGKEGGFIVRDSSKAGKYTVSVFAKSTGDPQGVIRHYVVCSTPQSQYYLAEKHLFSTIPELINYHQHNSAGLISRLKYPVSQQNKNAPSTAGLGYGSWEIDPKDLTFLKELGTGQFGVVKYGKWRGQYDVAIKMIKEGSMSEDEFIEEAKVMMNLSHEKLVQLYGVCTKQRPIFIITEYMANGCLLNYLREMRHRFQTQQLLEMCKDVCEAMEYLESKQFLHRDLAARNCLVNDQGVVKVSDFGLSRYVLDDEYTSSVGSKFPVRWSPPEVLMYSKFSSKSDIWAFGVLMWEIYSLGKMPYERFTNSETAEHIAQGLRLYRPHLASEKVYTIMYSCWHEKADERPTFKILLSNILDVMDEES
UniProt O60674: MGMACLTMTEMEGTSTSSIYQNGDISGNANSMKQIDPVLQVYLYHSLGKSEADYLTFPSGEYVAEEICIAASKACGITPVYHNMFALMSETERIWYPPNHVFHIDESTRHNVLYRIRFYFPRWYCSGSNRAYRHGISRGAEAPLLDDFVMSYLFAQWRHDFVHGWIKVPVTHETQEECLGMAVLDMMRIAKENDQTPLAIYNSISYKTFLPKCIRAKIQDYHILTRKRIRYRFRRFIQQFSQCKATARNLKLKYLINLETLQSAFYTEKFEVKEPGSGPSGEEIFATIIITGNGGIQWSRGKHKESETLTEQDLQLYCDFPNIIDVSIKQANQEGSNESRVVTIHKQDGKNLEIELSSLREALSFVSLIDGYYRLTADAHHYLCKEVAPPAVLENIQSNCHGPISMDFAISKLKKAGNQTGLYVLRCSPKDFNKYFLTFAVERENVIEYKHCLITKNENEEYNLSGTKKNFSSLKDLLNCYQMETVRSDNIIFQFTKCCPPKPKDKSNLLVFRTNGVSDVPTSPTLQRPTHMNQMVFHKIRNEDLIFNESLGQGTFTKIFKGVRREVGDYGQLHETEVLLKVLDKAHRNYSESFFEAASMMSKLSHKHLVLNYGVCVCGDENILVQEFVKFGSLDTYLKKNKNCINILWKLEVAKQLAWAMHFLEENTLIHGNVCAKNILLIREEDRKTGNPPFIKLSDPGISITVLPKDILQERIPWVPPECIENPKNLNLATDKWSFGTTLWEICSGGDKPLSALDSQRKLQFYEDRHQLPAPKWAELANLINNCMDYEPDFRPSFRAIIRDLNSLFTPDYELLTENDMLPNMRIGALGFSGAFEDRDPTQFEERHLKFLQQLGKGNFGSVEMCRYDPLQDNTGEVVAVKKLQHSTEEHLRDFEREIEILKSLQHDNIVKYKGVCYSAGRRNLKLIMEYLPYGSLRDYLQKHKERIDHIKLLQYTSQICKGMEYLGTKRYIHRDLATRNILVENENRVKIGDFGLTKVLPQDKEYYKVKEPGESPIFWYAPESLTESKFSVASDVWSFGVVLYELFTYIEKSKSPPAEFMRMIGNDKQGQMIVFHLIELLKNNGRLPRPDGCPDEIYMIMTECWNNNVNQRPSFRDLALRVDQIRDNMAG

Compound: Cc1c(-c2ccc(C(N)=O)c3[nH]c4cc(C(C)(C)O)ccc4c23)cccc1-n1c(=O)c2cccc(F)c2n(C)c1=O (atropisomer, axis not shown) [Example 3, 4-(3-(S)-(8-Fluoro-1-methyl-2,4-dioxo-1,2-dihydroquinazolin-3(4H)-yl)-2-methylphenyl)-7-(2-hydroxypropan-2-yl)-9H-carbazole-1-carboxamide]
- pIC50 [1]: 8.64
- Ratio of Jak2/Btk IC50 values [2]: 520

From US9714234B2, “Carbazole carboxamide compounds” (Bristol-Myers Squibb Company, priority 2013, dated 2017)
